Measured values published in patent US10407430B2, “Janus kinase 1 selective inhibitor and pharmaceutical use thereof” (YANG JI CHEMICAL CO., LTD., priority 2015, dated 2019).

Amino acid sequences for entries named in this document (tags omitted). A change or cut given only in a name is not applied to a line headed by its entry.
UniProt P23458: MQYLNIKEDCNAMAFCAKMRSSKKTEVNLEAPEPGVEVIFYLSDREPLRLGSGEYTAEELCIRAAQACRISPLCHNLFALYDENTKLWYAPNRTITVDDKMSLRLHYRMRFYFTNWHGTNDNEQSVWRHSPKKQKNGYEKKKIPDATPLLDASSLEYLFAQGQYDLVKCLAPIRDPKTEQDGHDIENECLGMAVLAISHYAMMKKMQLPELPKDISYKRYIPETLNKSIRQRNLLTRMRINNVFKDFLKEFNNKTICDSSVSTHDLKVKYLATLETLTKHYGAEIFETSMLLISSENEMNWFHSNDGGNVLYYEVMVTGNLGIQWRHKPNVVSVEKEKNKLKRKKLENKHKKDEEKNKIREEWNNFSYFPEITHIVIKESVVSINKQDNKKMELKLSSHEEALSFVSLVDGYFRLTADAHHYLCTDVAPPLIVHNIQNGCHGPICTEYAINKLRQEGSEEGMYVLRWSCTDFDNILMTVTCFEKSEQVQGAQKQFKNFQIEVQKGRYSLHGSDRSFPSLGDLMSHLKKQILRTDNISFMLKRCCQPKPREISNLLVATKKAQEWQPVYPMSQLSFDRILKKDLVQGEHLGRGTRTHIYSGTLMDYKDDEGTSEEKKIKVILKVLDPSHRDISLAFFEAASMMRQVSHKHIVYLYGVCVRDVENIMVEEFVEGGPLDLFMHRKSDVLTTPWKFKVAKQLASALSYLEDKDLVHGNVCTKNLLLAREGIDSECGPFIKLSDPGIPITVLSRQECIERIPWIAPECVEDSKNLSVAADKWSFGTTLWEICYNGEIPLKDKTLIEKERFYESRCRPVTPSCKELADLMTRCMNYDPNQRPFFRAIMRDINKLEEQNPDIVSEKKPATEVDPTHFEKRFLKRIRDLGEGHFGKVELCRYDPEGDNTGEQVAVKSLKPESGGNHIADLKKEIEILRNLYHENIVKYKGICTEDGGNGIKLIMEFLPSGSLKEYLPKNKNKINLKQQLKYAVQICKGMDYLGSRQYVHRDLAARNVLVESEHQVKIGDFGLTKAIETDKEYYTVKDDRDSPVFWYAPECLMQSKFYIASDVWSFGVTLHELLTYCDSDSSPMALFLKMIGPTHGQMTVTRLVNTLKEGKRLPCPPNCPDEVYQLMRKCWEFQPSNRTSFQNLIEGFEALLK
UniProt O60674: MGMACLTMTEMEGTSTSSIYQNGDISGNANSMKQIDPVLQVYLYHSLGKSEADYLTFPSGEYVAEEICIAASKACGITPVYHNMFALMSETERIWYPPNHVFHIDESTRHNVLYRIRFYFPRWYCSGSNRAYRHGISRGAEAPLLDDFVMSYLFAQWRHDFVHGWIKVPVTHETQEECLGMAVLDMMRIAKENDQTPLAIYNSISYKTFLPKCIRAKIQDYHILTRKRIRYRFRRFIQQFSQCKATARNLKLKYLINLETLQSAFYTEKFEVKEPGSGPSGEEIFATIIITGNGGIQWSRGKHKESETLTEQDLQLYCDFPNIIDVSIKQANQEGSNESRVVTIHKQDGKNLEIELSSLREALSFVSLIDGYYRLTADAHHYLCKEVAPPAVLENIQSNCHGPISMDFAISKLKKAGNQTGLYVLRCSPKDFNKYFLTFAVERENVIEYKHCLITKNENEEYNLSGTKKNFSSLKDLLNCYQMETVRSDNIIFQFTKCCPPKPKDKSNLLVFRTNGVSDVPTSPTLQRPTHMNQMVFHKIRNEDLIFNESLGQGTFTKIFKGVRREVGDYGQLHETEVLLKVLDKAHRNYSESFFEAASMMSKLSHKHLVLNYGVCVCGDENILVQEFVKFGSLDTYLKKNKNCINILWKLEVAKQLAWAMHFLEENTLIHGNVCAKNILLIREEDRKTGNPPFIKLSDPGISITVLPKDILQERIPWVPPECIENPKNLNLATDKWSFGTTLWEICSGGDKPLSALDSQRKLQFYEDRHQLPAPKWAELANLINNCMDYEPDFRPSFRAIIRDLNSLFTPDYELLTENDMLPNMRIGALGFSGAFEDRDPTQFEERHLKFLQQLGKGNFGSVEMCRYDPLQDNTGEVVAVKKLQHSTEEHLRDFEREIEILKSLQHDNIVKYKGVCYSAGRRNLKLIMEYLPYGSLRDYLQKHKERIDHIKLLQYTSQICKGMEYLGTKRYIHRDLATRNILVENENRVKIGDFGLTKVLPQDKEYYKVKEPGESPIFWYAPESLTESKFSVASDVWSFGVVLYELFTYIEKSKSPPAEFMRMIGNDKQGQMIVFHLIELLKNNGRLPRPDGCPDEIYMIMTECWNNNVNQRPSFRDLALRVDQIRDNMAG

What was measured:
Type in all cases: biochemical
Human JAK1 = molecular target: T1, Human JAK1 (Homo sapiens, UniProt P23458); experiment: In-vitro kinase inhibition test, JAK1
T1 construct: purchased Millipore, Germany

Human JAK2 = molecular target: T2, Human JAK2 (Homo sapiens, UniProt O60674); experiment: In-vitro kinase inhibition test, JAK2
T2 construct: purchased Millipore, Germany

Human JAK3 = molecular target: T3, Human JAK3 (Homo sapiens, UniProt P52333); experiment: In-vitro kinase inhibition test, JAK3
T3 construct: purchased Millipore, Germany
T3 sequence (P52333 1-1124): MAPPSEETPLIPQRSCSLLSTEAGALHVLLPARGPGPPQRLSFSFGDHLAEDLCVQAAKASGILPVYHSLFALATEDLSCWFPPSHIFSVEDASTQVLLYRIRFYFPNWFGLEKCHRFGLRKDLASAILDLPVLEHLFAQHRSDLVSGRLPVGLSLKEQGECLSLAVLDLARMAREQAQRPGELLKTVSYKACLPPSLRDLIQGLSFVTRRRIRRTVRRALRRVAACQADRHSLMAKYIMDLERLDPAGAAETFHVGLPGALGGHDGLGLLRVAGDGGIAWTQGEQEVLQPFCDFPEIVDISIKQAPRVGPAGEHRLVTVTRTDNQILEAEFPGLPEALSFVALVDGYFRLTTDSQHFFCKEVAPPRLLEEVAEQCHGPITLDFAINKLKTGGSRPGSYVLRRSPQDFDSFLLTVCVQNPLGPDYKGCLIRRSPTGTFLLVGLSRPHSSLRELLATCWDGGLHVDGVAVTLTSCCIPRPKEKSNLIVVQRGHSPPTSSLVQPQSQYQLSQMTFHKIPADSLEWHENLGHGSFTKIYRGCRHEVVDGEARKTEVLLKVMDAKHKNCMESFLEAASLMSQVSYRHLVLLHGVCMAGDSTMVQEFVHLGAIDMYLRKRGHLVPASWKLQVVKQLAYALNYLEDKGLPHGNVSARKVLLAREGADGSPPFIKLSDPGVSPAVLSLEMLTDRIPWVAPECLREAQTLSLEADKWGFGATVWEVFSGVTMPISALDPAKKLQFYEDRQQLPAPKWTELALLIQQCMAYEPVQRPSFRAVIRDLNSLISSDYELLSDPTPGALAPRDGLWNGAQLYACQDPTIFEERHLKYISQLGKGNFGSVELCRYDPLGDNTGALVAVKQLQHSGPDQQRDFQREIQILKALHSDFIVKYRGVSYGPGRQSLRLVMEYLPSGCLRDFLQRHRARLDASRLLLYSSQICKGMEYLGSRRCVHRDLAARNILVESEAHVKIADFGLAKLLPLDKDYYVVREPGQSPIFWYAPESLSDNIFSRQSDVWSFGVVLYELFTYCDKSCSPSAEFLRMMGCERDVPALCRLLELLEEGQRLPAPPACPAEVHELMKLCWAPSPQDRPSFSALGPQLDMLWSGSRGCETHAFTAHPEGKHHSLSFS

IC50 (Human JAK1): 18.8 nM
IC50 (Human JAK2): 128 nM
IC50 (Human JAK3): > 1000 nM
Compound: CN(c1ncnc2[nH]ccc12)[C@@H]1CCN(C(=O)CC#N)C1 [Example 1, (R)-3-(3-(methyl(7H-pyrrolo[2,3-d]pyrimidine-4-yl)amino)pyrrolidine-1-yl)-3-oxopropanenitrile]
